Data as given in patent US20250195521A1 (Revolution Medicines, Inc., priority 2020, published 2025).

The chains behind the UniProt entries cited, without tags or fusion partners. Where a name states a change or a piece, a line headed by the entry shows the natural chain unless it says otherwise. A line that says so, or that is headed by a name, gives the form on record, which may keep a tag or linker. Residues count along the entry.
UniProt P01116, 1-164 with tags or gaps G12C limits assumed: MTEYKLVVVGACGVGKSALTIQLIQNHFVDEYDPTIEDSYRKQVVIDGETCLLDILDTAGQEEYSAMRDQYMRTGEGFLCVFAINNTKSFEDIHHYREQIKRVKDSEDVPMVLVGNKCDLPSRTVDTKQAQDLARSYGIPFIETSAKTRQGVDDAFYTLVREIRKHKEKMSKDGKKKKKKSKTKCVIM
UniProt P01116, 1-164 with tags or gaps G12S limits assumed: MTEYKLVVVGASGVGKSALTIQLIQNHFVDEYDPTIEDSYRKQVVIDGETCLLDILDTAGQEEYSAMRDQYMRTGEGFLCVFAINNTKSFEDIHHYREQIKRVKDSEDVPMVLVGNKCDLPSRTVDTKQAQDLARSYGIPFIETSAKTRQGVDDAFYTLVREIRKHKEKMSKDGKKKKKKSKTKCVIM
UniProt P01116, 1-164 with tags or gaps G12V limits assumed: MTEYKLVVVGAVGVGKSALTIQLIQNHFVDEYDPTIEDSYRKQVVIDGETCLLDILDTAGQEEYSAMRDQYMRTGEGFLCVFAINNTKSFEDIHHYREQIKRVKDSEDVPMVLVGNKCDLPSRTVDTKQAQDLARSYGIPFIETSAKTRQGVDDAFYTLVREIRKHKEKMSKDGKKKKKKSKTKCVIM
UniProt P01116, 1-164 with tags or gaps G13C limits assumed: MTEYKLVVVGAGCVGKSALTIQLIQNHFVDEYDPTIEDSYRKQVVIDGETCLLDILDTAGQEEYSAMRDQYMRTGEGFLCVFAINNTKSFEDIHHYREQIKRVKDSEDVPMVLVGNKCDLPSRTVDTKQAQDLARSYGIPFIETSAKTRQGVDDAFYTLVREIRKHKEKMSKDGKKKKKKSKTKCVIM
UniProt P62937, whole entry, stated change not applied: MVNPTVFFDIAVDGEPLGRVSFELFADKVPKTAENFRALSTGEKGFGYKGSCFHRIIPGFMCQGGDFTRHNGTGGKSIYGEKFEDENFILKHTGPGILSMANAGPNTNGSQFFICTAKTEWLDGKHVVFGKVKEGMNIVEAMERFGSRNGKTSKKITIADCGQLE

Experiments:
[1] = target: K-Ras G12C(GMP-PNP) binding to BRAF RBD (Homo sapiens (Human), UniProt P01116+P62937, G12C); assay: Disruption of BRAF RBD interaction with K-Ras (FRET / MOA assay), K-Ras G12C; format: biochemical; conditions: read-out: KRAS G12C FRET IC50
[2] = tested on: K-Ras G12C (NCI-H358 cells); assay: Potency assay: pERK in NCI-H358 cells; format: cell-based, human; conditions: read-out: pERK EC50 (H358 KRAS G12C); NCI-H358 cells, 4 hours
[3] = target: KRAS G13C binding to BRAF RBD (Homo sapiens (Human), UniProt P01116+P62937, G13C); assay: Ras-Raf disruption/FRET/MOA assay, KRAS G13C; format: biochemical; conditions: read-out: KRAS G13C FRET IC50
[4] = target: KRAS G12V binding to BRAF RBD (Homo sapiens (Human), UniProt P01116+P62937, G12V); assay: Ras-Raf disruption/FRET/MOA assay, KRAS G12V; format: biochemical; conditions: read-out: KRAS G12V FRET IC50
[5] = target: KRAS G12S binding to BRAF RBD (Homo sapiens (Human), UniProt P01116+P62937, G12S); assay: Ras-Raf disruption/FRET/MOA assay, KRAS G12S; format: biochemical; conditions: read-out: KRAS G12S FRET IC50

Row | IC50 [1] | SMILES | also measured
1 | 1000 to 10000 nM | C=CC(=O)N1CC[C@H](C(=O)N(C)[C@H](C(=O)N[C@H]2Cc3cc(OC(C)=O)cc(c3)-c3ccc4c(c3)c(c(-c3ccccc3CN(C)C)n4CC)CC(C)(C)COC(=O)[C@@H]3CCCN(N3)C2=O)C(C)C)C1 | 
2 |  | CO[C@@H](C)c1ncccc1-c1c2c3cc(ccc3n1CC(F)(F)F)-c1cccc(c1)C[C@H](NC(=O)[C@@H](COC1CN(C(=O)C#CC3(C)OCCO3)C1)C(C)C)C(=O)N1CCC[C@H](N1)C(=O)OCC(C)(C)C2 | EC50 [2]: < 5000 nM
3 | 100 to 1000 nM | C=CC(=O)N1CC[C@H](C(=O)N(C)[C@H](C(=O)N[C@H]2Cc3cccc(c3)-c3ccc4c(c3)c(c(-c3cccnc3COC)n4CC)CC(C)(C)COC(=O)[C@@H]3CCCN(N3)C2=O)C(C)C)C1 | 
4 |  | CCn1c(-c2cccnc2COC)c2c3cc(ccc31)-c1cc(O)cc(c1)C[C@H](NC(=O)[C@H](C(C)C)N(C)C(=O)C1CN(C(=O)C#CCN(C)C)C1)C(=O)N1CCC[C@H](N1)C(=O)OCC(C)(C)C2 | IC50 [3]: < 10 nM
5 | 10 to 100 nM | C=CC(=O)N1CC[C@H](C(=O)N(C)[C@H](C(=O)N[C@H]2Cc3cc(N)cc(c3)-c3ccc4c(c3)c(c(C3=C(COC)CCCC3)n4CC)CC(C)(C)COC(=O)[C@@H]3CCCN(N3)C2=O)C(C)C)C1 | 
6 | 100 to 1000 nM | C=CC(=O)N1CC[C@H](C(=O)N(C)[C@H](C(=O)N[C@H]2Cc3cc(O)cc(c3)-c3ccc4c(c3)c(c(-c3ccc5c(c3)CCN(C)C5)n4CC)CC(C)(C)COC(=O)[C@@H]3CCCN(N3)C2=O)C(C)C)C1 [Compound A40] | 
7 | 10 to 100 nM | C=CC(=O)N1C[C@H](C)[C@H](C(=O)N(C)[C@H](C(=O)N[C@H]2Cc3cc(O)cc(c3)-c3ccc4c(c3)c(c(-c3cccnc3COC)n4CC)CC(C)(C)COC(=O)[C@@H]3CCCN(N3)C2=O)C(C)C)C1 | 
8 | 1000 to 10000 nM | C=CC(=O)N1CC[C@H](C(=O)N(C)[C@H](C(=O)N[C@H]2Cc3cc(N)cc(c3)-c3ccc4c(c3)c(c(-c3ccccc3COC)n4CC)CC(C)(C)COC(=O)[C@@H]3CCCN(N3)C2=O)C(C)C)C1 [A002] | 
9 | 10 to 100 nM | C=CC(=O)N1CC[C@H](C(=O)N(C)[C@H](C(=O)N[C@H]2Cc3cc(O)cc(c3)-c3ccc4c(c3)c(c(-c3ncccc3COC)n4CC)CC(C)(C)COC(=O)[C@@H]3CCCN(N3)C2=O)C(C)C)C1 [A028] | IC50 [4]: 10 to 100 nM; IC50 [5]: 10 to 100 nM
10 | 10 to 100 nM | C=CC(=O)N1C[C@H](C)[C@H](C(=O)N(C)[C@H](C(=O)N[C@H]2Cc3cc(O)cc(c3)-c3ccc4c(c3)c(c(-c3ccccc3CN(C)C)n4CC)CC(C)(C)COC(=O)[C@@H]3CCCN(N3)C2=O)C2CCCC2)C1 | 
11 | 1000 to 10000 nM | C=CC(=O)N1CC[C@H](C(=O)N(C)[C@H](C(=O)N[C@H]2Cc3cc(O)cc(c3)-c3ccc4c(c3)c(c(-c3ncccc3COC)n4CC)CC(C)(C)COC(=O)[C@@H]3CCCN(N3)C2=O)C(C)C)C1 [A084] | 
12 | 100 to 1000 nM | C=CC(=O)N1CC[C@H](C(=O)N(C)[C@H](C(=O)N[C@H]2Cc3cc(O)cc(c3)-c3ccc4c(c3)c(c(-c3cccnc3COC)n4C)CC(C)(C)COC(=O)[C@@H]3CCCN(N3)C2=O)C(C)C)C1 | 
13 |  | C=CC(=O)N1CC(OC[C@H](C(=O)N[C@H]2Cc3cc(F)cc(c3)-c3ccc4c(c3)c(c(-c3cccnc3[C@H](C)OC)n4CC(F)(F)F)CC(C)(C)COC(=O)[C@@H]3CCCN(N3)C2=O)C(C)C)C1 | EC50 [2]: < 5000 nM
14 | 10 to 100 nM | CCn1c(-c2ccccc2COC)c2c3cc(ccc31)-c1cc(O)cc(c1)C[C@H](NC(=O)[C@H](C(C)C)N(C)C(=O)[C@H]1CCN(C(=O)/C=C/CN(C)C)C1)C(=O)N1CCC[C@H](N1)C(=O)OCC(C)(C)C2 [Compound A79] | 
15 | 10 to 100 nM | C=CC(=O)N1CC(C(=O)N(C)[C@H](C(=O)N[C@H]2Cc3cc(O)cc(c3)-c3ccc4c(c3)c(c(-c3cccnc3COC)n4CC)CC(C)(C)COC(=O)[C@@H]3CCCN(N3)C2=O)C(C)C)C1 | 

Row | SMILES | IC50 [1] | also measured
16 | C=CC(=O)N1CC[C@H](C(=O)N(C)[C@H](C(=O)N[C@H]2Cc3cc(OC(=O)NCN4CCN(C)CC4)cc(c3)-c3ccc4c(c3)c(c(-c3ccccc3CCOC)n4CC)CC(C)(C)COC(=O)[C@@H]3CCCN(N3)C2=O)C(C)C)C1 | 100 to 1000 nM | 
